In patent publication US20030237104A1 (priority 2002, published 2003):

What was measured:
non-Tg mice (CB6F1) = assay: Rapid carcinogenicity tests, control non-Tg littermates; details: for forestomach papillomas incidence: single oral 2.5 mg/mouse, 13 weeks
CB6F1-HRAS2 mice = assay: Rapid carcinogenicity tests with CB6F1-HRAS2 (Tg) mice

Compound	forestomach papillomas incidence (non-Tg mice (CB6F1); female) [%]	forestomach papillomas incidence (non-Tg mice (CB6F1); male) [%]	forestomach papillomas incidence (CB6F1-HRAS2 mice; male and female, single oral 2.5 mg/mouse, 13 weeks) [%]	squamous cell carcinomas (CB6F1-HRAS2 mice; single oral 2.5 mg/mouse, 26 weeks, Tg vs non-Tg)	forestomach squamous cell carcinomas and lung adenocarcinomas (non-Tg mice (CB6F1); single i.p. 90 mg/kg, 6-month observation period)	liver tumors (CB6F1-HRAS2 mice; CB6F1-HRAS2 and control non-Tg mice)	incidence and multiplicity of lung adenoma (CB6F1-HRAS2 mice; Tg vs non-Tg)	forestomach squamous cell carcinomas and lung adenocarcinomas (CB6F1-HRAS2 mice; single i.p. 90 mg/kg, 3 months)	incidence of both types of malignant tumors (CB6F1-HRAS2 mice; single i.p. 90 mg/kg, six months)	incidence of (lung) adenoma (CB6F1-HRAS2 mice; single i.p. 90 mg/kg, six months, Tg vs non-Tg)
CN(N=O)C(=N)N[N+](=O)[O-]	11	0	100	observed only in MNNG-treated CB6F1-HRAS2 mice	–	–	–	–	–	–
N,N-Diethylnitrosamine	–	–	–	–	never observed	neither CB6F1-HRAS2 mice nor control non-Tg mice treated with these compounds developed liver tumors	not significantly higher	only in CB6F1-HRAS2 mice	increased substantially	significantly higher in non-Tg mice than in CB6F1-HRAS2 mice
